AlphaSeq binding of Ab-95 light chain variants to a spike HR2 peptide

Reference: Engelhart et al. 2022, doi:10.1038/s41597-022-01779-4. File: FLAb, binding data.

Target: peptide PDVDLGDISGINAS, taken from heptad repeat 2 (HR2) of SARS-CoV-2 spike.

Parent scFv Ab-95: VH joined to VL by the linker GGGGSGGGGSGGGGS. Changes lie in the light chain CDRs alone.
VH: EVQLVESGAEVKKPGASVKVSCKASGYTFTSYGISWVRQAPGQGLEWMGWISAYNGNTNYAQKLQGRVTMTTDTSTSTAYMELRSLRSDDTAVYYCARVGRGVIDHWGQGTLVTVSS
VL: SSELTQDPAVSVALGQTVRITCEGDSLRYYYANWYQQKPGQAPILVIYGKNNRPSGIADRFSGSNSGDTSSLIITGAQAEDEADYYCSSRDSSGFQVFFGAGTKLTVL

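Phage display of a naive human antibody library on the peptide gave the parent. Variants in AAYL52 differ from the parent at up to three CDR positions; double and triple changes were sampled at random. The assay is AlphaSeq: two haploid yeast populations carry antibody and antigen on their surface. Pairs that bind mate more often; barcode pairs of the diploids are counted by sequencing. A regression on co-assayed BCL2-family reference pairs converts the normalised counts of each replicate to an apparent Kd. There are three technical replicates.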

The whole VL of each variant is written out.
The Kd shown is the geometric mean over detected replicates; a lower Kd is a better binder.
"not detected" marks a missing value. The strain was present, yet no cells mated with the target were sequenced in any replicate, which points to weak or no binding.
As a blank, each scFv also met three strains without target: over library AAYL52, 28% of these pairings were detected, typically at 8.2 µM and seldom below 800 nM. For each scFv, signals with the empty controls are counted beside the result.

VL,Kd (apparent),seen in,empty controls
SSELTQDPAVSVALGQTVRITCVGDSLRYYEANWYQQKPGQAPILVIYGKNIRPSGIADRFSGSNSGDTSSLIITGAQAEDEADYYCSSRDSSGFQVFFGAGTKLTVL,15 nM,3 of 3,2 of 9
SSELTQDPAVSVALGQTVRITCKGDSLRYYYANWYQQKPGQAPILVIYGKNNRSSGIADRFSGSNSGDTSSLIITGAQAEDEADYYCSSRDSSGFQVFFGAGTKLTVL,51 nM,3 of 3,3 of 9
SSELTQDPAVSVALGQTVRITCEGDSLRYNYANWYQQKPGQAPILVIYGKNNRPSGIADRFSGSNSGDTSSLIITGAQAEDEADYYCSSRDSCGFQVIFGAGTKLTVL,23 nM,3 of 3,1 of 9
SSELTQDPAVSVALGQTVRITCEGDSLRYYYPNWYQQKPGQAPILVIYGKNNRPSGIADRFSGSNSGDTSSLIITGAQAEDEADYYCDSRDSSGFQCFFGAGTKLTVL,53 nM,3 of 3,1 of 9
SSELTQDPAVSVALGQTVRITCEGDSLRYYYANWYQQKPGQAPILVIYGKNPRPWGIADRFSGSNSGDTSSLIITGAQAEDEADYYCSERDSSGFQVFFGAGTKLTVL,not detected,0 of 3,0 of 9
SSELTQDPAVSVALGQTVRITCEGDSLKYYYANWYQQKPGQAPILVIYGKGNRDSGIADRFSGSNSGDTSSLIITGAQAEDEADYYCSSRDSSGFQVFFGAGTKLTVL,7.2 µM,3 of 3,0 of 9
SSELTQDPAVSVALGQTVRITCEGDSLRYYYANWYQQKPGQAPILVIYGKNNYPSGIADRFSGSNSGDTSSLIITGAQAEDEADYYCSSRHSSGWQVFFGAGTKLTVL,2.3 µM,2 of 3,2 of 9
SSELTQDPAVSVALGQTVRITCEGDSERYYYANWYQQKPGQAPILVIYGKNNRCSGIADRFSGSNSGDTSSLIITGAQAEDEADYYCSSRDSSGFQVFFGAGTKLTVL,26 µM,2 of 3,4 of 9
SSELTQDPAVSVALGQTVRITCEGDSLRYYYALWYQQKPGQAPILVIYGKINRPSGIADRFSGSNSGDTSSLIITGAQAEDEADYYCSSRDSSGFSVFFGAGTKLTVL,26 µM,2 of 3,3 of 9
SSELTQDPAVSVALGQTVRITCEGDSLRYCYANWYQQKPGQAPILVIYGKNNYPSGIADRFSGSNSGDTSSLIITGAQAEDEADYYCSSRDSSGFQVFFGAGTKLTVL,16 µM,1 of 3,5 of 9
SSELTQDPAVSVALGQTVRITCEGDSLRYYYANWYQQKPGQAPILVIYGKNNRPSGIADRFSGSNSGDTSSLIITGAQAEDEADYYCSSRDFPGFWVFFGAGTKLTVL,not detected,0 of 3,0 of 9
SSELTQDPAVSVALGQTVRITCCGDSLRYYYAPWYQQKPGQAPILVIYEKNNRPSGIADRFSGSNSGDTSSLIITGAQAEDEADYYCSSRDSSGFQVFFGAGTKLTVL,15 µM,2 of 3,2 of 9
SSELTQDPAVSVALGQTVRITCEGDSLRYYYANWYQQKPGQAPILVIYGKNNRPSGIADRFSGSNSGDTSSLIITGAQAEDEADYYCTSRDSSHLQVFFGAGTKLTVL,12 µM,1 of 3,1 of 9
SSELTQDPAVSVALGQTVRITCEGDSLAYYYAMWYQQKPGQAPILVIYGKNNRPSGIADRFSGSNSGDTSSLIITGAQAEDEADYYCSSRDSSTFQVFFGAGTKLTVL,3.0 µM,1 of 3,2 of 9
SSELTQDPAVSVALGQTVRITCEGDSLRYYYANWYQQKPGQAPILVIYCMNNRPSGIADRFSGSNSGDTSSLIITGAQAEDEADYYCSSRDSSGIQVFFGAGTKLTVL,17 µM,2 of 3,2 of 9
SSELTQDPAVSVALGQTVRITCEGDSLRYEYASWYQQKPGQAPILVIYGKNNRPSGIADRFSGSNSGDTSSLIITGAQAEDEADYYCSSRDSSGFQVWFGAGTKLTVL,110 nM,3 of 3,2 of 9
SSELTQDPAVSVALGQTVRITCEGDSLRYYKANWYQQKPGQAPILVIYGKNNRPSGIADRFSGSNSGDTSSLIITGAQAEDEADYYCQSIDSSGFQVFFGAGTKLTVL,480 nM,3 of 3,3 of 9
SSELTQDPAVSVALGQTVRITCEGDSLTYYVANWYQQKPGQAPILVIYGKNNRPSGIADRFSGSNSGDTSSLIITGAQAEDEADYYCSSRDSSGFQQFFGAGTKLTVL,1.3 µM,1 of 3,0 of 9
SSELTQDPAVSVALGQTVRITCEGDSARPCYANWYQQKPGQAPILVIYGKNNRPSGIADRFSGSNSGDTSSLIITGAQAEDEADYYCSSRDSSGFQVFFGAGTKLTVL,51 µM,1 of 3,0 of 9
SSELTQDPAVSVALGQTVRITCEGDSLRYYNANWYQQKPGQAPILVIYGKNDRPYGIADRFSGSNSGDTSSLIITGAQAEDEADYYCSSRDSSGFQVFFGAGTKLTVL,9.5 nM,3 of 3,6 of 9
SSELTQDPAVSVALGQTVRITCEGDSSYYYYANWYQQKPGQAPILVIYGKNNRPSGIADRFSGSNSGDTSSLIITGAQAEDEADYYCSSRMSSGFQVFFGAGTKLTVL,14 µM,1 of 3,4 of 9
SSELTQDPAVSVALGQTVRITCEGDSTRYYYANWYQQKPGQAPILVIYGKDKRPSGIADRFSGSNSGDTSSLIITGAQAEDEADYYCSSRDSSGFQVFFGAGTKLTVL,9.4 µM,3 of 3,1 of 9

Picked from the list: the 3 lowest averages where every replicate gave a value.

VL,Kd (apparent),seen in,empty controls
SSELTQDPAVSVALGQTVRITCEGDSLRYYNANWYQQKPGQAPILVIYGKNDRPYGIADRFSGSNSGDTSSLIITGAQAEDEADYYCSSRDSSGFQVFFGAGTKLTVL,9.5 nM,3 of 3,6 of 9
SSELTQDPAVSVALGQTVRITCVGDSLRYYEANWYQQKPGQAPILVIYGKNIRPSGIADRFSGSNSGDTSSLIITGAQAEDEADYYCSSRDSSGFQVFFGAGTKLTVL,15 nM,3 of 3,2 of 9
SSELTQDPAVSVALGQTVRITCEGDSLRYNYANWYQQKPGQAPILVIYGKNNRPSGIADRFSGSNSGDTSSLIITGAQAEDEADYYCSSRDSCGFQVIFGAGTKLTVL,23 nM,3 of 3,1 of 9

In this assay the parent's reference entry averaged 200 nM; its copy inside this library read 180 nM.